From patent US11559536B2, “Compositions and methods for the treatment of inflammation in urological pathology” (Duke University, priority 2019, dated 2023)
Read-outs that look alike come from different tables or passages of the source.

Experiments:
[1] = tested on: caspase-1 activation in urothelial cells; test: Caspase-1 assay in isolated rat urothelial cells treated with stone DAMPs, with or without inhibitors
[2] = 24 h after CP 150 mg/kg, GLY 2.5 mg/kg, Mesna 40 mg/kg

Row | SMILES | Evans blue extravasation in the hippocampus (blood brain barrier breakdown) (CP-induced cystitis; [2]) | other results
1 | O=P1(N(CCCl)CCCl)NCCCO1 (stereo not shown) [CP, cyclophosphamide] |  | Evans blue extravasation in the hippocampus (blood brain barrier breakdown) (CP-induced cystitis; rat, in vivo): significant increase in Evans blue extravasation
2 | COc1ccc(Cl)cc1C(=O)NCCc1ccc(S(=O)(=O)NC(=O)NC2CCCCC2)cc1 [GLY, glyburide] | reduced the dye extravasation to levels not significantly different from controls | 
3 | O=S(=O)([O-])CCS.[Na+] [Mesna, 2-mercaptoethane sulfonate sodium] | reduced the dye extravasation to levels not significantly different from controls | 
4 | COc1ccc(CCN(C)CCCC(C#N)(c2ccc(OC)c(OC)c2)C(C)C)cc1OC (stereo not shown) [Verapamil] |  | dose sufficient to completely inhibit CPPD-mediated caspase-1 activation [1]: 150 µM
